# According to publication PMC4358367, “Structural basis of diverse membrane target recognitions by ankyrins” (eLife, 2014):
# Protein sequences, listed by entry. Tags and fused reporters are not part of them. Residues count along the entry.
# UniProt Q01484, 28-873: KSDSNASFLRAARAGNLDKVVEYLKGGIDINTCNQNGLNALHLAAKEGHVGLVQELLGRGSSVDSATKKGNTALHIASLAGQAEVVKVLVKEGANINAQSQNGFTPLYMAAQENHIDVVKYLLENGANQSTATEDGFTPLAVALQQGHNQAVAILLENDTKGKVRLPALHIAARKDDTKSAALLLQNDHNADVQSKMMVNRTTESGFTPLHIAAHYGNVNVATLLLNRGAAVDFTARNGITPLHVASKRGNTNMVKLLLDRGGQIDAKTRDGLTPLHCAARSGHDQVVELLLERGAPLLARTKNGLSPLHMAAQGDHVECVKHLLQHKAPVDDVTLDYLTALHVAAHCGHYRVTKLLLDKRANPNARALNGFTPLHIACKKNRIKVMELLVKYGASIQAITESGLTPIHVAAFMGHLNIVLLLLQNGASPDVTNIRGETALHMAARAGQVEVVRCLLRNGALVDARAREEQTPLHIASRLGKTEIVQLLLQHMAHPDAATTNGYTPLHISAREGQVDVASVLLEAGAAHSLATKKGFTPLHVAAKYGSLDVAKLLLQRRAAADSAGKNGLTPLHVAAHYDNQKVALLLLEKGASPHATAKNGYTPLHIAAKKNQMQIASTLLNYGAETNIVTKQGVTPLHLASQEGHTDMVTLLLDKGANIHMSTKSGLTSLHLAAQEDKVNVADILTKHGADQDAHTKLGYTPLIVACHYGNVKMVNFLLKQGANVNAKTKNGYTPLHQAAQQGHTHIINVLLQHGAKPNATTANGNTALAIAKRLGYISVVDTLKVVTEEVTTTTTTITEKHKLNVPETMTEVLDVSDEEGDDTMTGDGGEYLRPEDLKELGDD
# Target: T1, AnkB_repeats WT (Homo sapiens, UniProt Q01484)
# T1 construct: thioredoxin-His6 (N); made in house; host or cells: Escherichia coli BL21 (DE3)
# Test: Fluorescence polarization binding to AnkB_repeats WT
# Conditions: deduced from ANK repeats WT and site mutants
# Description: The coding sequences of AnkB_repeats (residues 28–873) were PCR amplified using the full-length human 220 kDa AnkB as the template. The coding sequences of the AnkR constructs, including AnkR_repeats (residues 42–853), and the full length AnkR C-terminal domain (residues 1529–1907), were PCR amplified from a mouse muscle cDNA library. The coding sequence of AnkG_repeats (residues 38–855) were PCR amplified using the full-length rat 190 kDa AnkG as the template. The fusion construct of AnkR_AS and AnkB_repeats was made by standard two-step PCR with a coding sequence of thrombin recognition residues ‘GSLVPRGS’ as the linker. This construct was used to crystallize and determine the complex structure. The same strategy was used in making other fusion constructs, including the Nav1.2_ABD-C/AnkB_repeats_R1–9 fusion construct containing residues 1103–1129 from mouse Nav1.2 and human AnkB residues 28–318 followed by a capping sequence corresponding to the αB of R24 (residues 814–822) and the AnkR_AS/AnkG_repeats fusion construct. For truncation mutations of ANK repeats constructs, the same capping sequence was added to the appropriate region of the C-terminus of each construct for protein stabilization. […]
# Fluorescence assays were performed on a PerkinElmer LS-55 fiuorimeter equipped with an automated polarizer at 25°C. […]
smiles,measurement,value
CC[C@H](C)[C@H](NC(=O)[C@H](Cc1ccc(O)cc1)NC(=O)[C@@H]1CCCN1C(=O)[C@H](CCCNC(=N)N)NC(=O)[C@@H](NC(=O)[C@H](CCCCN)NC(=O)[C@H](C)NC(=S)Nc1ccc2c(c1)C(=O)OC21c2ccc(O)cc2Oc2cc(O)ccc21)C(C)C)C(=O)N[C@@H](C)C(=O)N[C@@H](CCC(=O)O)C(=O)NCC(=O)N[C@@H](CCC(=O)O)C(=O)N[C@@H](CO)C(=O)N[C@@H](CC(=O)O)C(=O)N[C@H](C(=O)N[C@@H](CC(=O)O)C(=O)N[C@@H](CO)C(=O)N[C@@H](CC(=O)O)C(=O)N[C@@H](CC(C)C)C(=O)N[C@@H](CS)C(=O)N[C@H](C(=O)O)[C@@H](C)O)[C@@H](C)O [FITC-KCNQ2 peptide],ANK repeat sites used for binding,mainly binds to sites 1 and 2
